According to patent US20260384460A1, “COMPOUND BASED ON CORYDALMINE STRUCTURE AND USE THEREOF” (published 2026):

Key:
[1] = system: acetic acid-induced writhing model in mice; test: Analgesia test in acetic acid-induced writhing model (oral gavage); settings: single oral gavage, dose per compound in Table 1, 0.6% acetic acid 2 h after administration, n=5, mean±standard error; for Number of Writhing, 5-15 min: 5-15 min after acetic acid, blank 17 ± 15; for Number of Writhing, 15-30 min: 15-30 min after acetic acid, blank 20 ± 14; for Time to start writhing: blank 241 ± 95; for Number of Writhing, Total: blank 37 ± 26
Method: 1) The animal mice (CD-1 mice, age: 6-8 weeks, sex: male, body weight: 20-24 g, number: 120, animal supplier: SPF (Beijing) Biotechnology Co., Ltd.) underwent a 7-day quarantine period, during which the routine health examination was conducted by veterinarians. The animals with abnormalities were excluded from the study prior to experimentation.
(§1) The animal mice were housed in a SPF-grade laminar flow clean room with constant temperature and constant humidity at the Pharmaron (Beijing) New Drug Technology Co., Ltd. Animal Center (an AAALAC-accredited facility), with 5 mice per cage. Feeding room was maintained at a temperature of 22±3 °C and a humidity of 40-70%, with a light radiation of 12-hour light/dark cycle. Cages were made from polycarbonate. Autoclaved clean beddings were made from soft corncob and changed twice weekly. Diet and drinking water: Clean-grade rodent diet (purchased from Beijing Keao Xieli Feed Co., Ltd.). The drinking water was autoclaved, and the food was irradiated with cobalt 60 ray. The animals were free to ingest sterile food and drinking water.
Each cage was provided with a cage label, indicating the animal number, sex, line, receipt time, grouping, and start time of experiment. Animal number: Each animal was marked with a unique animal number at its tail.
The animals were randomly divided to groups according to their weight, and the specific groups and administration modes were listed in Table 1 below, wherein [COMPOUND LEFT OUT], an existing drug commonly used for analgesia, was used as positive control in the present disclosure.
Prior to the administration, the mice were fasted for 16 hours. According to Table 1, the administration modes in various groups were as follows: Positive drug [COMPOUND LEFT OUT]: intravenous injection; other drug or blank groups: oral gavage; administration volume: 10 mL/kg; number of administration times: single.
2) All the mice were weighed and recorded in detail before the administration. After the administration, various groups were injected with 0.6% glacial acetic acid, wherein Group 2 was injected 10 min after the administration, and other groups were injected 2 h after the administration. […] The writhing number of mice were taken as the index of pain reaction, evaluating the analgesic effect of the compound. The writhing reaction occurred more frequently within 30 min after the injection of 0.6% glacial acetic acid. The number of “writhing reactions” occurred were observed and recorded within 5-15 min and 15-30 min after the injection of 0.6% glacial acetic acid.
The writhing test results of mice in various groups were represented as “mean±standard error”. The data of various groups were subjected to data statistics using SPSS16.0 software package with the statistical method of One-way ANOVA. The groups were compared to determine if there was a statistical difference therebetween, wherein P<0.05 indicated a statistical difference. The recorded results of the writhing start time of the mice in various groups were shown in FIG. 3, and the writhing test results of the mice in various groups were shown in Table 2.

[2] = system: writhing reaction in mice injected with 0.6% glacial acetic acid; test: Detection of activity: acetic acid writhing in mice, intravenous administration (inhibition rate); settings: i.v., 10 mpk; 0.6% acetic acid 15 min after administration; writhing within 20 min; vs control group without administration
Method: The animal mice (CD-1 mice, age: 6-8 weeks, sex: male, body weight: 20-24 g, number: 120, animal supplier: SPF (Beijing) Biotechnology Co., Ltd.) underwent a 7-day quarantine period, during which the routine health examination was conducted by veterinarians. The animals with abnormalities were excluded from the study prior to experimentation.
as §1, with “a” for “a SPF-grade laminar flow”, “room,” for “room with constant temperature and constant humidity at the Pharmaron (Beijing) New Drug Technology Co., Ltd. Animal Center (an AAALAC-accredited facility),”, “22±3YC” for “22±3 °C”, “Kleao” for “Keao”, “water. All the mice were weighed and recorded in detail before the administration.” for “water.”
Before the administration, the mice were fasted for 16 h. The administration was conducted by intravenous injection with an administration volume of 10 mL/kg and a dose of 10 mpk. […] The number of “writhing reactions” occurred within 20 min after the injection of 0.6% glacial acetic acid and the number of “writhing reactions” in the control group without administration were observed, and a ratio thereof was calculated. […]

[3] = system: inflammatory pain model induced by complete Freund's adjuvant in mice; test: Plantar thickness in inflammatory pain model induced by complete Freund's adjuvant in mice; settings: A10-0 5 mg/kg oral, n=4, FIG. 2; for effect of reducing the sole-swelling degree (plantar thickness): 0.5, 2, 8, 24 h after first administration, Morphine 2 mg/kg s.c., A3 8.4 mg/kg oral
Text: (§2) • 1) The animal mice (C57BL/6J, 8-week-old, male, purchased from Zhejiang Charles River Experimental Animal Technology Co., Ltd.; Certificate Number: 20220617Abzz0619000690; License Number: SCXK (Zhejiang) 2019-0001; Issued by: Zhejiang Charles River Experimental Animal Technology Co., Ltd.; 18-22 g) were adaptively reared for one week after purchase, during which the mice were fed ad libitum; • 2) In the first 3 days of the test, the mice were placed on a metal pain measuring rack to adapt for 40-60 min, during which the experimenter contacted the animals adaptively (contacting the mice for 3-5 min, Day 1 to Day 3) to reduce the stress reaction of the experimental animals to the experimenters; • 3) After the completion of the environmental adaptation (Day 4), the Baseline values of the animals were tested (Up-down testing method), and the animals were randomly divided into 4 groups, including Model Group (Model), Control Group I (Morphine), Control Group II (A10-0, Corydalmine), Test Group (A3) with 4 mice in a group (n=4); • 4) The inflammatory pain model was induced by complete Freund's adjuvant, including the steps of: pipetting 20 μL of the complete Freund's adjuvant (CFA) solution with a sample microinjector, inserting the needle from the toe of one hind paw of the animal, slowly injecting the CFA solution into the subcutaneous position of the palm to form a bulge under the skin, keeping the needle in situ for 20 s, and slowly withdrawing the needle in rotatory manner to avoid any liquid leakage; • 5) The mechanical pain thresholds and the plantar thicknesses of the mice were tested 0.5 h, 2 h, 8 h, and 24 h after the first administration (in Control Group I, morphine was subcutaneously administered; and in other groups, the agents were administered by oral gavage at intervals of 8 h); wherein the dosage was 2 mg/kg in Control Group I (Morphine), 5 mg/kg in Control Group II (A10-0, Corydalmine), and 8.4 mg/kg in Test Group (A3).

[4] = system: inflammatory pain model induced by complete Freund's adjuvant in mice; test: Mechanical pain test of inflammatory pain model induced by complete Freund's adjuvant in mice (mechanical pain threshold, Up-down testing method); settings: A3 8.4 mg/kg oral, n=4
Text: as §2
The measurement method of mechanical pain (Up-down testing method) includes the following steps: • a. An experimental animal was placed on a mechanical pain metal net rack and stood for 30 min to 60 min. After the animal stopped looking, exploring, and being quiet, the test began. • b. After adaptation, the middle plantaris of hind paw was stimulated with a fiber.
The experimenter placed the Von Frey fiber perpendicular to the plantar surface, applied a sufficient force to slightly bend the fiber relative to the paw for about 6-8 s; • c. The contact should be gentle (no puncture), and the force was slowly applied until the fibers began to bend. • d. […] The first data point after the first inflection point was taken as Reading 1, and the test was stopped after the obtainment of 4 readings. […]

[5] = 0.5, 2, 8, 24 h after first administration, Morphine 2 mg/kg s.c., A10-0 5 mg/kg oral, FIG. 1

## CCCCCCCCC(=O)Oc1ccc2c(c1OC)CN1CCc3cc(OC)c(OC)cc3[C@@H]1C2
[1]
  Number of Writhing, 5-15 min: 15 ± 15
  Number of Writhing, 15-30 min: 13 ± 10
  Time to start writhing: 493 ± 484 s
  Number of Writhing, Total: 28 ± 24

## CCOC(=O)C(CCC(=O)Oc1ccc2c(c1OC)CN1CCc3cc(OC)c(OC)cc3[C@@H]1C2)NC(=O)[C@@H](C)c1ccc(-c2ccccc2)c(F)c1 (stereo partly drawn)
[2]
  Inhibition Rate (%): 60.33%

## CCCCCCCCC/C=C/C=C/C=C/C=C/C=C/C=C/C(=O)Oc1ccc2c(c1OC)CN1CCc3cc(OC)c(OC)cc3[C@@H]1C2
[1]
  Number of Writhing, 5-15 min: 5 ·
  Number of Writhing, 15-30 min: 5 ± 3
  Time to start writhing: 310 ± 210 s
  Number of Writhing, Total: 10 ·

## COc1cc2c(cc1OC)[C@@H]1Cc3ccc(O)c(OC)c3CN1CC2
[1]
  Number of Writhing, 5-15 min: 4 ·
  Number of Writhing, 15-30 min: 5 ± 3
  Number of Writhing, Total: 9 ·
[3]
  effect of reducing the sole-swelling degree (plantar thickness): had an effect of reducing the sole-welling degree
  duration of the sole-swelling-reducing effect: the effect was maintained for a short time
[4]; [5]
  analgesic effect on the inflammatory pain model (mechanical pain threshold): did not have a significant analgesic effect
[4]; vs Morphine 2 mg/kg s.c., A10-0 5 mg/kg oral, FIG. 1 and FIG. 2
  comparison with the positive drug Morphine (analgesic and sole-swelling-reducing effect): different effects in terms of analgesic effect and sole-swelling-reducing effect

## COCCOCCOCCOCCOCCOCCOCCOCCOCC(=O)Oc1ccc2c(c1OC)CN1CCc3cc(OC)c(OC)cc3[C@@H]1C2
[1]
  Number of Writhing, 5-15 min: 5 ·
  Number of Writhing, 15-30 min: 3 ± 7
  Time to start writhing: 294 ± 223 s
  Number of Writhing, Total: 8 ·

## CN1CC[C@]23c4c5ccc(O)c4O[C@H]2[C@@H](O)C=C[C@H]3[C@H]1C5
[3]
  effect of reducing the sole-swelling degree (plantar thickness): did not have an effect of reducing the sole-swelling degree
[4]; 0.5, 2, 8, 24 h after first administration, Morphine 2 mg/kg s.c., FIG. 1
  duration of the analgesic effect: the effect cannot be maintained for a long term
[4]; [5]
  analgesic effect on the inflammatory pain model (mechanical pain threshold): good analgesic effect

## CCCCCCCC/C=C\CCCCCCCC(=O)Oc1ccc2c(c1OC)CN1CCc3cc(OC)c(OC)cc3[C@@H]1C2
[1]
  Number of Writhing, 5-15 min: 12 ± 10
  Number of Writhing, 15-30 min: 10 ± 10
  Time to start writhing: 275 ± 66 s
  Number of Writhing, Total: 23 ± 19
